Assay results as given in patent US7517894B2, “VEGFR-2 and VEGFR-3 inhibitory anthranilamide pyridines” (Bayer Schering Pharma AG, priority 2003, dated 2009).
pIC50: −log10 of the molar value.

Chains of the proteins cited; added tags and fusions are not shown. Residues count along the entry.
UniProt P35968, 20-1356 limits assumed: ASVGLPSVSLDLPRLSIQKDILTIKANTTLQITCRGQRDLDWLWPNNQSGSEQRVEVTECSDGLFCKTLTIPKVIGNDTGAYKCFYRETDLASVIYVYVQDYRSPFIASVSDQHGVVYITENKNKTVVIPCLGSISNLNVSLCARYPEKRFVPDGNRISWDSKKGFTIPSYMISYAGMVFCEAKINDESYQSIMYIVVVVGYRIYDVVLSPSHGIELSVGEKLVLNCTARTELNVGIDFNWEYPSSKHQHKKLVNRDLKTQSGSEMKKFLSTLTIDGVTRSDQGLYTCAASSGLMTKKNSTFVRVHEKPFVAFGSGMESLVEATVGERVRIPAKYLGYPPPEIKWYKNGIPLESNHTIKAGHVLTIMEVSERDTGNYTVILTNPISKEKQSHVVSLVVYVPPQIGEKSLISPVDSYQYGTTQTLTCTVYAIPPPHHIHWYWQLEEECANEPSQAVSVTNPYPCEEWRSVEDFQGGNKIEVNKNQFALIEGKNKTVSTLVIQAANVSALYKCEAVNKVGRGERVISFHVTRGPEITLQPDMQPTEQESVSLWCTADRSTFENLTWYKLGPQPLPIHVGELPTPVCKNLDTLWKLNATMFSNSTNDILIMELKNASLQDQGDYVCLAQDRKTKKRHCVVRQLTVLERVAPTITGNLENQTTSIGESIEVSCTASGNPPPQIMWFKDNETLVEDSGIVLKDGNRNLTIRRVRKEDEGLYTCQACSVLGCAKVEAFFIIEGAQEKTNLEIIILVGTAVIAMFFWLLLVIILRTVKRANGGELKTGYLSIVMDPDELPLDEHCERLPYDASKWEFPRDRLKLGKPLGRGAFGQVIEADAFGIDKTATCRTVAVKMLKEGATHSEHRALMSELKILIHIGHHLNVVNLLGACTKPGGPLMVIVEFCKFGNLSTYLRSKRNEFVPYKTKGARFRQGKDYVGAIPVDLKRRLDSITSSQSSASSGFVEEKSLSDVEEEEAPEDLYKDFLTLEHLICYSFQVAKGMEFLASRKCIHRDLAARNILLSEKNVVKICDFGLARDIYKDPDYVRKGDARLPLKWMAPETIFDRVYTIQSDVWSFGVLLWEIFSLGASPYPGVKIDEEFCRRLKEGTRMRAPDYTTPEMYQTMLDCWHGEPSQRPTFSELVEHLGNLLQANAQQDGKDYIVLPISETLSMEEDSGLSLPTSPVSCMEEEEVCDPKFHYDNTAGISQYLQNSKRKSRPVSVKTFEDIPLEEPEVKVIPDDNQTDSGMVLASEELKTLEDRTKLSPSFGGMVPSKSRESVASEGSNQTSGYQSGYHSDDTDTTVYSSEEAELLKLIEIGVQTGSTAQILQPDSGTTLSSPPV
UniProt P08684, whole entry: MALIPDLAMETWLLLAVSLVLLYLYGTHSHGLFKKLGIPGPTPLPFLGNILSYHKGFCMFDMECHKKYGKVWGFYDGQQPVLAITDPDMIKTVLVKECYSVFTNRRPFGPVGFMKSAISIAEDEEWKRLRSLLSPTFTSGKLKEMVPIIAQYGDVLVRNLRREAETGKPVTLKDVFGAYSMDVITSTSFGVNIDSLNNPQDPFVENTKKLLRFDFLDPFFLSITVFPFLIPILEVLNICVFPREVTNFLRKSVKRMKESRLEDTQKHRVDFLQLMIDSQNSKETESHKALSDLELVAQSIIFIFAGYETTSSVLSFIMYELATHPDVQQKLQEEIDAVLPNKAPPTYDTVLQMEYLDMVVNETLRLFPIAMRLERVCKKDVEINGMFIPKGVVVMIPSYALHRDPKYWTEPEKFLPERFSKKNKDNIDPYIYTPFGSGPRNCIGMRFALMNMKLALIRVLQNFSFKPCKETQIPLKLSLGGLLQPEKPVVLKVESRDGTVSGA

How the values were obtained:
VEGFR II (KDR) = VEGFR II (KDR) (Homo sapiens, UniProt P35968); assay: Inhibition of the KDR kinase activity (33P-ATP, poly-(Glu4Tyr) phosphocellulose filter assay); conditions: read-out: VEGFR II (KDR) kinase inhibition IC50; 10 minutes at room temperature; phosphate incorporation into poly-(Glu4Tyr)
Experimental: • Stock solution A: 3 mmol of ATP in water, pH 7.0 (−70° C.) • Stock solution B: g-33P-ATP 1 mCi/100 μl • Stock solution C: poly-(Glu4Tyr) 10 mg/ml in water Solution for Dilutions • Substrate solvent: 10 mmol of DTT, 10 mmol of manganese chloride, 100 mmol of magnesium chloride • Enzyme solution: 120 mmol of tris/HCl, pH 7.5, 10 μM of sodium vanadium oxide Sample Application 1
In a microtiter plate (without protein binding) that tapers to a point, 10 μl of substrate mix (10 μl of volume of ATP stock solution A+25 μCi of g-33P-ATP (about 2.5 μl of stock solution B)+30 μl of poly-(Glu4Tyr) stock solution C+1.21 ml of substrate solvent), 10 μl of inhibitor solution (substances corresponding to the dilutions, 3% DMSO in substrate solvent as a control) and 10 μl of enzyme solution (11.25 μg of enzyme stock solution (KDR or FLT-1 kinase) are added at 4° C. in 1.25 ml of enzyme solution (dilute). It is thoroughly mixed and incubated for 10 minutes at room temperature. Then, 10 μl of stop solution (250 mmol of EDTA, pH 7.0) is added, mixed, and 10 μl of the solution is transferred to a P 81 phosphocellulose filter. Then, it is washed several times in 0.1 M phosphoric acid. The filter paper is dried, coated with Meltilex and measured in a microbeta counter.
The IC50 values are determined from the inhibitor concentration, which is necessary to inhibit the phosphate incorporation to 50% of the uninhibited incorporation after removal of the blank reading (EDTA-stopped reaction).

[1] = target: human cytochrome P 450 isoenzyme (3A4) (Homo sapiens, UniProt P08684); assay: Cytochrome P450 inhibition (Crespi et al.); conditions: read-out: Cytochrome P450 Isoenzyme 3A4 inhibition; baculovirus/insect cell-expressed human isoenzyme 3A4
Experimental: The cytochrome P450 inhibition was performed according to the publication of Crespi et al. (Anal. Biochem., 248, 188-190 (1997)) with use of baculovirus/insect cell-expressed, human cytochrome P 450 isoenzyme (3A4).

Row | pIC50 (VEGFR II (KDR)) | pIC50 [1] | Structure (SMILES)
1 | 8.10 | 5.00 | CCOC(=O)Nc1cc(CNc2ccccc2C(=O)Nc2ccc3[nH]ncc3c2)ccn1
2 | 7.39 | < 4.52 | CC(=O)Nc1cc(CNc2ccccc2C(=O)Nc2cc3ccccc3cn2)ccn1

Row | Structure (SMILES) | pIC50 (VEGFR II (KDR)) | pIC50 [1]
3 | O=C(Nc1cc2ccccc2cn1)c1ccccc1NCc1ccncc1 | 8.30 | 
